# Values of other authors in US20220331213A1, “ANTIMICROBIAL COMPOSITIONS COMPRISING A BENZOIC ACID ANALOG AND ACID PH BUFFERS” (eHealth Nexus LLC, priority 2021, published 2022).
substance,measurement,setting,value
copper gluconate,solubility in ethanol,ethanol,insoluble
same,solubility in water,water,easily soluble
